Rows were chosen to be rich in hits. Some 1.7% of all compounds tested hit in one or more screens of this group.
DYRK1A inh = rat Dyrk1A kinase inhibitors, primary screen, biochemical, single point, plate reader. Dual specificity tyrosine-phosphorylation-regulated kinase 1A (Rattus norvegicus), Q63470. ADP-Glo luminescence, NFATc1 peptide. inhibition, % at 12.5 µM. actives 0.43% (n = 310,000). AID 504441, 2011; in the data active = inhibition above about 50%
CAL PDZ FP-1 = untagged CAL PDZ binding inhibitors, primary screen, biochemical, fluorescence polarization, HTS; purified CAL PDZ, TMR-peptide fluorescence polarization, 1 h; actives 0.92% (n = 300,000); Golgi-associated PDZ and coiled-coil motif-containing protein (Homo sapiens), Q9HD26; inhibition, % at 24.9 µM;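 active = mean inhibition of at least 30% with at least half of replicates also reaching 30%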
CDK5 p35 inh = inhibitors of human CDK5/p35 kinase, primary screen, biochemical, single concentration; Recombinant CDK5/p35, ADP-Glo luminescence, 60 min; inhibition, % at 10 µM; actives 0.01% (n = 330,000); AID 488839, 2010;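 active = highest replicate inhibition of at least 50% and at least 75% of replicates reaching 50%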
UUG fidelity = modulators of start codon recognition fidelity in yeast; S. cerevisiae UUG-firefly luciferase reporter, luminescence/redox ratio; activity score, % at 18.7 µM; hit rate 0.13% among 350,000; AID 602363;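 active = replicate mean at a twofold rise or more, about +100% in these data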;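 note: firefly luciferase made from a UUG start codon reports start codon fidelity; reporter light over untreated wells divided by growth signal over untreated wells; some hits fall short of that in this replicate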
dFosB act-1 = activators of delta FosB homodimer, primary screen, biochemical, fluorescence polarization, TAMRA-CDK5 oligo, single point; purified delta FosB; percent of positive-control signal above neutral wells; actives 0.99% (n = 340,000); Protein FosB (Mus musculus), P13346; activation, % at 25 µM;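 active = mean activation above about 17%, with every replicate also reaching it, limit read from the data, passing the limit was not always enough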
CAL PDZ FP-2 = CAL PDZ peptide-binding inhibitors, primary screen, biochemical, fluorescence polarization, Cer-tagged CAL PDZ, HTS | Golgi-associated PDZ and coiled-coil motif-containing protein (Homo sapiens), Q9HD26 | AID 504414, 2011 | inhibition, % at 20 µM | purified CAL PDZ, TMR-peptide fluorescence polarization, 1 h | actives 0.02% (n = 330,000);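 active = highest replicate inhibition of at least 40%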
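Test system: purified CerCALP PDZ construct; Compound dosing: one concentration, 20 µM compound; Also added: TMR-labelled reporter peptide T*-PRC34 bound in PDZ groove; Read-out: inhibition from polarization loss; Controls: unlabelled peptide and DMSO controls; Signal: FP readout, S and P plane fluorescence; Incubation: 1 h at RT.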
dFosB act-2 = activators of mouse delta FosB DNA binding, confirmation, biochemical, fluorescence polarization, TAMRA-CDK5 oligo, cherry-picked samples; shares compounds with dFosB act-1; purified delta FosB; normalised: neutral wells 0, positive control 100; AID 588690, 2011; activation, % at 24.9 µM; 2,400 tested, under 10 active;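 active = highest replicate activation at or above 34% and every replicate reaching that threshold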;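 also: higher polarization means more probe DNA bound by delta FosB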
Large screens that a line does not name were inactive (follow-up assays come after a bar, where they were run).

COCC(=O)N(C)C[C@H]1Oc2cc(-c3ccccc3)ccc2S(=O)(=O)N([C@H](C)CO)C[C@@H]1C	none (no result: DYRK1A inh, CAL PDZ FP-1, CDK5 p35 inh, dFosB act-1, CAL PDZ FP-2)
COc1ccc(Cn2c(-c3ccco3)nc3oc4cc(OC)ccc4c(=O)c3c2=O)cc1	CAL PDZ FP-1 38
O=C(NCC[C@@H]1CC[C@@H](NC(=O)C2CCOCC2)[C@@H](CO)O1)Nc1ccc(Cl)cc1	none (no result: DYRK1A inh, CAL PDZ FP-1, CDK5 p35 inh, dFosB act-1, CAL PDZ FP-2)
CCOC(=O)c1cnc2ccc(OC)cc2c1Nc1ccc(N2CCN(C)CC2)cc1	dFosB act-1 36
O=C(Nc1cccnc1)c1cccc(S(=O)(=O)N2CCc3ccccc32)c1	CAL PDZ FP-1 73 (no result: UUG fidelity)
CC1Cc2ccccc2N1S(=O)(=O)c1cccc(C(=O)NC2CC2)c1 (configuration not stated)	none
CC1Cc2ccccc2N1S(=O)(=O)c1cccc(C(=O)Nc2cccnc2)c1 (configuration not stated)	CAL PDZ FP-1 34 (no result: CAL PDZ FP-2)
O=C(Nc1ccncc1)c1cccc(S(=O)(=O)N2CCc3ccccc32)c1	none (no result: CAL PDZ FP-1, UUG fidelity)
Cc1noc(C)c1S(=O)(=O)Nc1ccc2c(c1)C(=O)N([C@@H](C)CO)C[C@@H](C)[C@@H](CN(C)Cc1ccc(Cl)c(Cl)c1)OCCCC[C@@H](C)O2	none (no result: DYRK1A inh, CAL PDZ FP-1, CDK5 p35 inh, dFosB act-1, CAL PDZ FP-2)
COc1ccc(CCNC(=O)Cn2c(=O)n(-c3ccc(F)cc3F)c(=O)c3sccc32)cc1OC	CAL PDZ FP-1 32 (no result: CAL PDZ FP-2)
CN1CCN(C(c2ccc(Br)cc2)c2cc(Cl)c3cccnc3c2O)CC1 (configuration not stated)	dFosB act-1 29
O=C(c1ccccc1)c1c2c(cc3sc4ccccc4[n+]13)-c1cccc3cccc-2c13	dFosB act-1 22
CCCc1cc(=O)oc2c3c(cc(OCC(=O)N4CCC[C@H]4C(=O)O)c12)OC(C)(C)CC3	CAL PDZ FP-1 43
CCNC(=O)C[C@@H]1CC[C@@H]2[C@H](COc3ccc(NC(=O)c4ccc(F)c(F)c4)cc3C(=O)N2C)O1	none (no result: DYRK1A inh, CAL PDZ FP-1, CDK5 p35 inh, dFosB act-1, CAL PDZ FP-2)
Cc1noc(C)c1S(=O)(=O)Nc1ccc2c(c1)C(=O)N([C@@H](C)CO)C[C@@H](C)[C@@H](CN(C)Cc1ccc(Oc3ccccc3)cc1)O2	none (no result: DYRK1A inh, CAL PDZ FP-1, CDK5 p35 inh, dFosB act-1, CAL PDZ FP-2)
COc1ccc(NN=Nc2ccc([N+](=O)[O-])cc2)cc1	CAL PDZ FP-1 42
COc1ccc(N/N=C(/Oc2ccc([N+](=O)[O-])cc2)C(C)=O)cc1	none
CCOc1ccc(/C=C2/SC(=S)N(CCC(=O)Nc3ccc(C(=O)O)cc3)C2=O)cc1	dFosB act-1 48 (no result: CAL PDZ FP-1)
O=C(CCN1C(=O)/C(=C\c2ccc(F)cc2)SC1=S)Nc1ccc(O)cc1	dFosB act-1 32
O=C(CCN1C(=O)/C(=C\c2ccc(F)cc2)SC1=S)Nc1ccccc1	none
COc1ccc(/C=C2\SC(=S)N(CCC(=O)Nc3ccc(O)cc3)C2=O)cc1	dFosB act-1 34
CC(/C=C1\SC(=S)N(CCC(=O)Nc2ccc(O)cc2)C1=O)=C\c1ccccc1	dFosB act-1 23
OCCN1CCN(c2nc(NCc3ccco3)c3ccccc3n2)CC1	none (no result: UUG fidelity)
Cc1ccc(OCCN2CCN(c3nc(NCc4ccco4)c4ccccc4n3)CC2)cc1	dFosB act-1 27
c1ccc(CN2CCN(c3nc(NCc4ccco4)c4ccccc4n3)CC2)cc1	dFosB act-1 28 (no result: CAL PDZ FP-2)
CCc1cccc(OCCOC(=O)CNS(=O)(=O)c2ccc(NC(C)=O)cc2)c1	dFosB act-1 56 | dFosB act-2 inactive

Screening results from PubChem BioAssay.
